Activity calls are given as the source filed them. The calls are words filed in the database; no cut-off is given here.
Tests used:
[1] = molecular target: Retinoic acid receptor alpha (Homo sapiens) (UniProt P10276); experiment: Inverse agonist activity at NR1B1 (unknown origin) at 1 uM
[2] = molecular target: Retinoic acid receptor beta (Homo sapiens) (UniProt P10826); experiment: Agonist activity at NR1B2 (unknown origin) at 1 uM
[3] = molecular target: T1, Nuclear receptor subfamily 1 group D member 2 (Homo sapiens) (UniProt Q14995); experiment: Antagonist activity at NR1D2 (unknown origin) at 1 uM
T1 sequence (whole entry): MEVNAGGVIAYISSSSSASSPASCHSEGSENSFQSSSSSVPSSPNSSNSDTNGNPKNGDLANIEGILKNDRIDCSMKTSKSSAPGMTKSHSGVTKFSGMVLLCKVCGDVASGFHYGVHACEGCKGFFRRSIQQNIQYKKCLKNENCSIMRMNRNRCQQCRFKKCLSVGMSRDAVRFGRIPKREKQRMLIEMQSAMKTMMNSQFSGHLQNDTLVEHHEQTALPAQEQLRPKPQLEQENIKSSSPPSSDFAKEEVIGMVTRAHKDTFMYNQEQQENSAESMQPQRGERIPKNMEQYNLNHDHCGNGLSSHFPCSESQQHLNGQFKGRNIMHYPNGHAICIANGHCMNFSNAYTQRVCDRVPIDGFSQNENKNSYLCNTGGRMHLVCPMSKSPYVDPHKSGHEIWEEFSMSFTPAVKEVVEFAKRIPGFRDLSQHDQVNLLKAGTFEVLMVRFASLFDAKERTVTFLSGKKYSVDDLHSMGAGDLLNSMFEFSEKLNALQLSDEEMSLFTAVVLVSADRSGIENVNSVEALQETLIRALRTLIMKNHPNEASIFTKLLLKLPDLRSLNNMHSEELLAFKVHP

Amino acid sequences for entries named in this document (tags omitted). A change or cut given only in a name is not applied to a line headed by its entry.
UniProt P10276, whole entry: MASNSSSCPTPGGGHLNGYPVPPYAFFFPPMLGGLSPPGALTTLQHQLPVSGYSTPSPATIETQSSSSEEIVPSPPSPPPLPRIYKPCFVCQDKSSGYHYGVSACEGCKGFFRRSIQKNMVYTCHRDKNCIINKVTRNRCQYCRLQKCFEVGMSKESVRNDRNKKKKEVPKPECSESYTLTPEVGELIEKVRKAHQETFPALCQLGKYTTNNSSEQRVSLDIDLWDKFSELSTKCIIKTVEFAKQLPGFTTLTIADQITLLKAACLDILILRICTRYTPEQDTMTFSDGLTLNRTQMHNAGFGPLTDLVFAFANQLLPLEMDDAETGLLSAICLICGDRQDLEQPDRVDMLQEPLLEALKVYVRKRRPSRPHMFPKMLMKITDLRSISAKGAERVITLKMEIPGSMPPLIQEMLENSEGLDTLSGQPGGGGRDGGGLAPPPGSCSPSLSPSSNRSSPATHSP
UniProt P10826, whole entry: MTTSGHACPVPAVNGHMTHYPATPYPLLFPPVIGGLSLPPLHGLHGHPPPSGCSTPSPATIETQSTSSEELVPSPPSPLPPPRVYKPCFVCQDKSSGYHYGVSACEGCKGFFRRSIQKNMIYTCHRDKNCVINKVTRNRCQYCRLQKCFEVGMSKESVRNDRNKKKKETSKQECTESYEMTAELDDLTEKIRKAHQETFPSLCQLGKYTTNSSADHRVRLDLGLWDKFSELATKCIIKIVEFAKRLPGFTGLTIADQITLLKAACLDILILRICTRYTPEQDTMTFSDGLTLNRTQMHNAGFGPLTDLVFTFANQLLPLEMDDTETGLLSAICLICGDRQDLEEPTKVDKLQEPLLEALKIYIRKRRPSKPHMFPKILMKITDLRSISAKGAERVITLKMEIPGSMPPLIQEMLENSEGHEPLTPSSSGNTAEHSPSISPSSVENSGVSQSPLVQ
UniProt P51449: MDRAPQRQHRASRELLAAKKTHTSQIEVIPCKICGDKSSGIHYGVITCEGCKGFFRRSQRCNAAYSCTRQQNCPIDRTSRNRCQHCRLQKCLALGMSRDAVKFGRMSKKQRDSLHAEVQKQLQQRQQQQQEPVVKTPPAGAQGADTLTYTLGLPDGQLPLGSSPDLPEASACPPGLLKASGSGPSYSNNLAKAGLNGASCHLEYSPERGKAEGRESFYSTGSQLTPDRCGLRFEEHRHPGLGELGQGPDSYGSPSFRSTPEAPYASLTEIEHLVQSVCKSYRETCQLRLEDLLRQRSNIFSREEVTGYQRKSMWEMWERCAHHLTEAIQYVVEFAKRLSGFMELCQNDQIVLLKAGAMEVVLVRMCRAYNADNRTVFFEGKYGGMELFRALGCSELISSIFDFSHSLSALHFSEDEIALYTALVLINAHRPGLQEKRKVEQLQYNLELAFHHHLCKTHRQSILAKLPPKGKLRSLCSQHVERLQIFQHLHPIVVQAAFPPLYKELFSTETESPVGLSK
UniProt O00482, whole entry: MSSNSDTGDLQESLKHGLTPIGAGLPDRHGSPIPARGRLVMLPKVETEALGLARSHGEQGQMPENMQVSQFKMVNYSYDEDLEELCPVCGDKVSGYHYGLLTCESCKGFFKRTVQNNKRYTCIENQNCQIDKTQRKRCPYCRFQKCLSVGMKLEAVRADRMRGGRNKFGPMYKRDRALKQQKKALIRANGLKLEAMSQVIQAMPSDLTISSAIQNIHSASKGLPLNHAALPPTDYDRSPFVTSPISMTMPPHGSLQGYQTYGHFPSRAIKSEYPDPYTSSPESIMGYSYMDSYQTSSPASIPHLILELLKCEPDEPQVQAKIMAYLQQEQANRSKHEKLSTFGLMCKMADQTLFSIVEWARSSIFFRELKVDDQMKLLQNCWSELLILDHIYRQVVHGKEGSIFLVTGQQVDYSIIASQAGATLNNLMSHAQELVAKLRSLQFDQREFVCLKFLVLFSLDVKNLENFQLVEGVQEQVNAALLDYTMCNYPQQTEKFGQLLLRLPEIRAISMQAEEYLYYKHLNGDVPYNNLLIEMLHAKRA

[4] = molecular target: T2, Peroxisome proliferator-activated receptor alpha (Homo sapiens) (UniProt Q07869); experiment: Antagonist activity at NR1C1 (unknown origin) at 1 uM
T2 sequence (whole entry): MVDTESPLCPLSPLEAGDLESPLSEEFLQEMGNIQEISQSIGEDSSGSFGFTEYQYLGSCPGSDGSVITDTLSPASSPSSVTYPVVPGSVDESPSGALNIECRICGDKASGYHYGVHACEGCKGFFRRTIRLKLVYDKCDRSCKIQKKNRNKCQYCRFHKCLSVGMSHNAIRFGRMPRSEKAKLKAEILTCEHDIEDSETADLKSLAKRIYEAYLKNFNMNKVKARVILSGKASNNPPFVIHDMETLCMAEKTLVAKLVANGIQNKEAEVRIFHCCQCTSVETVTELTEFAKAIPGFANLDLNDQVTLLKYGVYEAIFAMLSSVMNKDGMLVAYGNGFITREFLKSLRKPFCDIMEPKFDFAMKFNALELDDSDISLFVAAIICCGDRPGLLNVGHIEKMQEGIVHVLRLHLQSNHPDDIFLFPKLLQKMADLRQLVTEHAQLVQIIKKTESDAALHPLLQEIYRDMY

[5] = molecular target: T3, Nuclear receptor subfamily 1 group D member 1 (Homo sapiens) (UniProt P20393); experiment: Antagonist activity at NR1D1 (unknown origin) at 1 uM
T3 sequence (whole entry): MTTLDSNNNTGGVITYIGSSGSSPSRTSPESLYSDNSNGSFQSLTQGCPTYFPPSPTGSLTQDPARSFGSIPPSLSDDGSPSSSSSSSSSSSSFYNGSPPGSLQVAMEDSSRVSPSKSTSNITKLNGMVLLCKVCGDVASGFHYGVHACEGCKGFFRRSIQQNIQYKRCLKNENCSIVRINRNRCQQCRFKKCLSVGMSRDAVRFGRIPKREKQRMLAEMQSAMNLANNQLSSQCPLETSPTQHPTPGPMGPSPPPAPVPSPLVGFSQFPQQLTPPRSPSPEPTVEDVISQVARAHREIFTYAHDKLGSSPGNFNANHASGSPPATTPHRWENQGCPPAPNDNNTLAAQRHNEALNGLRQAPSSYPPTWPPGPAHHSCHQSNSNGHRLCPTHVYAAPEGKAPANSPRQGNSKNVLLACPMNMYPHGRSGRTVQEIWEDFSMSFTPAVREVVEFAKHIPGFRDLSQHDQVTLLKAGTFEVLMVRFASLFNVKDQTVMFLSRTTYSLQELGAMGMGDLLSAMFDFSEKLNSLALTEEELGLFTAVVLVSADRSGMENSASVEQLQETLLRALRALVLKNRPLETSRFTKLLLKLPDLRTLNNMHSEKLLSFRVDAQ

[6] = molecular target: Nuclear receptor ROR-gamma (Homo sapiens) (UniProt P51449); experiment: Inverse agonist activity at NR1F3 (unknown origin) at 1 uM
[7] = molecular target: Nuclear receptor subfamily 5 group A member 2 (Homo sapiens) (UniProt O00482); experiment: Antagonist activity at NR5A2 (unknown origin) at 1 uM

Activity [1]: inactive
Activity [2]: inactive
Activity [3]: inactive
Activity [4]: inactive
Activity [5]: inactive
Activity [6]: inactive
Activity [7]: inactive
SMILES: O=C(O)[C@@H]1C[C@H]1c1nc(-c2ccccc2)c(-c2cc(C(F)(F)F)cc(C(F)(F)F)c2)o1 (racemic)

Source: ChEMBL document CHEMBL5375987, “Structural Fusion of Natural and Synthetic Ligand Features Boosts RXR Agonist Potency” (J Med Chem, 2023)
